The chains behind the UniProt entries cited, without tags or fusion partners. Where a name states a change or a piece, a line headed by the entry shows the natural chain unless it says otherwise.
UniProt Q9BWU1: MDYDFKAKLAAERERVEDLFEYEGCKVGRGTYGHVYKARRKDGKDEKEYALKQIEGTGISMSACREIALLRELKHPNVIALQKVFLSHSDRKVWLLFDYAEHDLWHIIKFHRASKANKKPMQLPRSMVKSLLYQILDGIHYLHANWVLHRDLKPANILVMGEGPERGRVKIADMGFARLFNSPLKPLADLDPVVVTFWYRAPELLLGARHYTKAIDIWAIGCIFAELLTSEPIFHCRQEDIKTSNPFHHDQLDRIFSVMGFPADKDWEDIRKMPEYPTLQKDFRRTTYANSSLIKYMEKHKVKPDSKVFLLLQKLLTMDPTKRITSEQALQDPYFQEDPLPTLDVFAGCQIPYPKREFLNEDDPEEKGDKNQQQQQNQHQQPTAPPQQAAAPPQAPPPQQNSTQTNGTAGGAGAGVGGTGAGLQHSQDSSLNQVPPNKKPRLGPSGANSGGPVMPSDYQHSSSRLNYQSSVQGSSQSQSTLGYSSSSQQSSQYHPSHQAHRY

According to patent US9321737B2, “CDK8-CDK19 selective inhibitors and their use in anti-metastatic and chemopreventative methods for cancer” (SENEX BIOTECHNOLOGY INC, priority 2012, dated 2016):

Molecular target: CDK19 (Homo sapiens, UniProt Q9BWU1)
Assay: Kd determination, CDK19
Type: binding
Conditions: in duplicate
Experimental: The selectivity of SNX2-1-165 for CDK8 and CDK19 was tested using the services of KinomeScan, a division of Ambit Biosciences, San Diego, Calif., which measured the activity of a single concentration of the compound (2,000 nM, an order of magnitude higher than Kd) to inhibit ATP pocket binding of >450 kinases. (16) The results of this analysis are presented in FIGS. 6A-B in the form of an evolutionary dendrogram of the kinase family, where kinase inhibition is represented by red circles, the size of which represents the magnitude of the inhibition.

Structure (SMILES): CN1CCN(C(=O)c2ccc3cc(CCNc4ncnc5ccc(C#N)cc45)ccc3c2)CC1 [SNX2-1-165]
- Kd: 80 nM
